{
  "sequences": {"note": "Sequences of proteins named here, by UniProt entry; tags and fusion partners are left off.", "UniProt P14735, whole entry": "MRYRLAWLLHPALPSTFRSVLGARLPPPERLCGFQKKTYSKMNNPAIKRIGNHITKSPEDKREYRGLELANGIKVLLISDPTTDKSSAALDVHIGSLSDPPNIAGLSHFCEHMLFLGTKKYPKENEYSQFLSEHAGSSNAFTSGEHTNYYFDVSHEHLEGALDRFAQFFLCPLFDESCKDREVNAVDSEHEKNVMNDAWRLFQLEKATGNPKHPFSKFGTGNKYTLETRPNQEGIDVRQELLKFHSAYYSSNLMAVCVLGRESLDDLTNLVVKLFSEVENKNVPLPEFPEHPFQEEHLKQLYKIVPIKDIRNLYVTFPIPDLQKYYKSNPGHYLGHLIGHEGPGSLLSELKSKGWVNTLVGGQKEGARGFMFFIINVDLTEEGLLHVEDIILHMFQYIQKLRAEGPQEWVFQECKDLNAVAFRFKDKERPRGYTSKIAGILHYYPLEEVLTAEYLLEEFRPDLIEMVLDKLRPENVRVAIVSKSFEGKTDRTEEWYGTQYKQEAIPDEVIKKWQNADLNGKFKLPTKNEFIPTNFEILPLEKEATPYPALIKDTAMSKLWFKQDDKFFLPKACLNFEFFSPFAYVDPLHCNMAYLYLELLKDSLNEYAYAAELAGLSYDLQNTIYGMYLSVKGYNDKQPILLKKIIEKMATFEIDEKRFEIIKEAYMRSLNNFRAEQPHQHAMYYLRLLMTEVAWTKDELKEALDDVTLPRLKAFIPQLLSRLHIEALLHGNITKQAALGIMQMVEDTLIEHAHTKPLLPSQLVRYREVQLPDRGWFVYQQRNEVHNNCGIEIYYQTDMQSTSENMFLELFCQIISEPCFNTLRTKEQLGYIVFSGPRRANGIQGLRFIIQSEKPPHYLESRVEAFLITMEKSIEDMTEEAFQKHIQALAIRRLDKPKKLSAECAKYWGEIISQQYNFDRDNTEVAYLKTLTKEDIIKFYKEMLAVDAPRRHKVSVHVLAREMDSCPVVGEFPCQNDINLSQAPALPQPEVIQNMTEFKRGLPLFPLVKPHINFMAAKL"},
  "source": "PubChem BioAssay AID493087",
  "about": "(The Scripps Research Institute Molecular Screening Center, 2011)",
  "note": "This is a selection; strong and weak results do not stand in their true shares. Activity calls are given as the source filed them.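 Rule for the calls: active = activation above the mean of all tested compounds plus 3 SD, set per screening campaign (cut at about 17% in these data); inactive = the rest.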",
  "data": [
    {"biological_target": "Insulin-degrading enzyme (Homo sapiens) (UniProt P14735)", "assay": "enhanced cellular IDE Abeta cleavage – fluorescence polarization, HEK cells, FAbeta-B substrate, primary screen (AID 493087)", "details": "at 5.96 µM, stronger effect = higher value, 0% vehicle, 100% cell-free pure enzyme wells", "values": [
      {"smiles": "CCC(=O)N(c1ccccc1)C1(COC)CCN(CCc2cccs2)CC1", "activation": "inactive: 6.04%"},
      {"smiles": "CCC(=O)N(c1ccccc1)C1(COC)CCN(CCn2nnn(CC)c2=O)CC1", "activation": "inactive: 3.68%"}
    ]}
  ]
}
